The results in this text go back to patent publication US7960404B2, “Spirocyclic cyclohexane compounds” (dated 2011).

Chains of the proteins cited; added tags and fusions are not shown.
UniProt P41146, whole entry: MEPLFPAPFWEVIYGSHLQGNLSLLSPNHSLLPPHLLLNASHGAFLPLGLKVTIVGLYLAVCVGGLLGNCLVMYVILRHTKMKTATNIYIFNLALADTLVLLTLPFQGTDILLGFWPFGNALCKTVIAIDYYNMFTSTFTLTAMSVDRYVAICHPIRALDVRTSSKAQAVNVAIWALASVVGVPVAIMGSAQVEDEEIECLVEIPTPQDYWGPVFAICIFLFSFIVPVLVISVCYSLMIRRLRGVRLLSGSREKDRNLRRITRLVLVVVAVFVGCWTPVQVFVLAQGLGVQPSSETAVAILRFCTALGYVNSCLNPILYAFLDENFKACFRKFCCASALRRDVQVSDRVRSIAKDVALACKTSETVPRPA
UniProt P35372, whole entry: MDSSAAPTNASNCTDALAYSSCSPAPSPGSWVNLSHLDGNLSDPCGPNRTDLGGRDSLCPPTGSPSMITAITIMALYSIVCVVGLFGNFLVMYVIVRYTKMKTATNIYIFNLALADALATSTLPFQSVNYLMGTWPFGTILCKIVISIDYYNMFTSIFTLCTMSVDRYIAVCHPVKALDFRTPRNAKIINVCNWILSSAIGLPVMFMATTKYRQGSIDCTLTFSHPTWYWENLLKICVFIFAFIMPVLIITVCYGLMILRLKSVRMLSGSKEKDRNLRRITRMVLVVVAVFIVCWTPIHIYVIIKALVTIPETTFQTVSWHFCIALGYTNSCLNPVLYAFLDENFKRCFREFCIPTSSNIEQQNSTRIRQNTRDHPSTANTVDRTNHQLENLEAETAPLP

Structures are written as SMILES. Where two headings read alike, the source gives them in different places.

One test has as its target ORL1 receptor (Homo sapiens, UniProt P41146). The test can be described thus: ORL1 receptor binding assay with 3H-nociceptin/orphanin FQ (SPA).
For another test, the target named is human μ-opiate receptor (Homo sapiens, UniProt P35372). As to the kind of experiment: μ-opiate receptor binding assay with [3H] naloxone (SPA).
The mark [1] stands for this setting: 1 μM, series R3=phenyl, R8=F, X=O.

As to `CCCCC1(N(C)C)CCC2(CC1)OCCc1c2[nH]c2ccc(F)cc12` (centres unmarked), the inhibition constant (Ki) at ORL1 receptor (read-out: Ki (ORL1) mean, series R3=n-butyl, R8=F, X=O) amounted to 1.6 nM; on human μ-opiate receptor (read-out: Ki (μ) mean, series R3=n-butyl, R8=F, X=O) it was 0.9 nM.
For the compound `CNC1(c2ccccc2)CCC2(CC1)OCCc1c2[nH]c2ccc(F)cc12` (centres unmarked), the “% inhibition (ORL1) [1 μM]” value on ORL1 receptor (setting [1]) stood at 91%. Moreover, the Ki on ORL1 receptor (read-out: Ki (ORL1) mean, series R3=phenyl, R8=F, X=O) is 11.2 nM; on human μ-opiate receptor (read-out: Ki (μ) mean, series R3=phenyl, R8=F, X=O), 0.8 nM. Also, the “% inhibition (μ) [1 μM]” value on human μ-opiate receptor (setting [1]) worked out at 100%.
Regarding `Fc1cccc(C2(N3CCC3)CCC3(CC2)NCCc2c3[nH]c3ccccc23)c1` (single isomer, unassigned), the figures for the inhibition constant (Ki) at ORL1 receptor (read-out: Ki (ORL1)) and on human μ-opiate receptor (read-out: Ki (μ)) were 0.8 nM and 0.9 nM, respectively.
